Usually AC50 stands for the concentration giving half of the maximal activity seen.

From PubChem BioAssay (EPA / NIEHS) come the findings set out here.

This is a selection; strong and weak results do not stand in their true shares. Calls of active or inactive are those of the source. The calls were made as follows: active = hit-call score of the fitted dose curve at least 0.9, where 1 is the maximum; inactive = score below 0.9.

The assay is described as follows: ATG_PPRE_CIS: Attagene CIS-FACTORIAL HepG2 Assay for human Peroxisome Proliferator-activated Response Element (PPRE) (AID 2282958). The settings on record: HepG2 PPRE cis-element reporter, Attagene transcription factor profiling; actives raise or lower the signal.
Take `c1ccc2c(c1)Cc1ccccc1-2`: the molecule was classed as inactive.

With `Cc1ccc(N/N=c2\c(=O)cc/c(=N/Nc3ccc(S(=O)(=O)O)cc3)c2=O)c(C)c1`, the call was inactive.

As for `C=C(C)C(=O)OCCO`, the call was inactive.

For the molecule `O=C(O)c1cc(Cl)cc([N+](=O)[O-])c1Cl`, the outcome was inactive.

`CCCCCCOC(=O)CCCCC`: the molecule was classed as inactive.

As for `Cc1nc(C)nc(N2C[C@@H](C)N(c3ccnc([C@@H](C)O)n3)[C@@H](C)C2)n1`, the molecule was called inactive.

In the case of `CCOC(=O)c1ccccc1C`, the result was inactive.

Turning to `CCCCCCCCCCCCCC`, the call was inactive.

As for `CCCC[N+]1(C)CCCC1`, the call was inactive.

In the case of `C=C(C)[C@@H]1CCC2=CCC[C@@H](C)[C@]2(C)C1`, the result was inactive.

As for `CC=CC(=O)N(CC)c1ccccc1C`, the molecule was classed as inactive.

Turning to `CCCC(=O)C(CC)Sc1ccoc1C` (stereo not given), the molecule was classed as inactive.

As to `OCCc1ccncc1`, the result was inactive.

Regarding `CC(C)OCCO`, the result was inactive.

For `CC(C)(C)c1cc(/C=C2\SC(N)=NC2=O)cc(C(C)(C)C)c1O`, the molecule was classed as inactive.

On to `COC(=O)c1ccc(I)cc1S(=O)(=O)NC(=O)Nc1nc(C)nc(OC)n1`, for which the result was inactive.

Turning to `CN1CCCC1`, the molecule was called inactive.

On to `CCCCOC(=O)COc1ccc(Cl)cc1Cl`, for which the molecule was called inactive.

As for `CCCC1CCC(=O)CC1`, the molecule was classed as inactive.

For `CC1=NN(c2ccc(S(=O)(=O)O)cc2)C(=O)C1`, the molecule was classed as inactive.

`Oc1ccc2ccccc2c1N=Nc1ccccc1`: the AC50 is active: 4.16 µM.

Take `CNC(=S)N(C)C`: the molecule was called inactive.

For `Nc1ccc(O)c(N)c1`, the molecule was called inactive.

Consider `CC(C#N)(CCC(=O)O)N=NC(C)(C#N)CCC(=O)O` (stereo not given), for which the call was inactive.

As to `N=c1ccn2c(n1)O[C@H]1[C@H](O)[C@@H](CO)O[C@H]12`, the molecule was called inactive.

In the case of `O=C(O)Cn1c(=O)n(Cc2ccc(Br)cc2F)c(=O)c2ccc(Cl)cc21`, the half-maximal activity concentration (AC50) was active: 2.9 µM.

As to `Nc1c(S(=O)(=O)O)cc(Br)c2c1C(=O)c1ccccc1C2=O`, the AC50 is active: 67.7 µM.

Take `COCCOCCOCCOC`: the result was inactive.

For `Nc1cccc(N)c1`, the call was inactive.

Turning to `COc1ccc(Cl)cc1C`, the molecule was called inactive.

Take `C1=CC2C3C=CC(C3)C2C1` (stereo not given): the call was inactive.

Regarding `O=[N+]([O-])c1ccc(C=Cc2ccc([N+](=O)[O-])cc2S(=O)(=O)O)c(S(=O)(=O)O)c1`, the molecule was called inactive.

As for `C[Si](C)O[Si](C)(C)O[Si](C)(C)O[Si](C)C`, the result was inactive.

Consider `c1ccc(Sc2ccccc2)cc1`, for which the molecule was called inactive.

As to `C=C1C[C@H]2[C@@H]3C=C(C)C4=CC(=O)CC[C@]4(C)[C@H]3CC[C@]2(C)[C@@]1(OC(C)=O)C(C)=O`, the outcome was inactive.

As for `O=C(O)c1cccnc1C(=O)O`, the call was inactive.

For the molecule `CCCC1CCOC(C)S1` (stereo not given), the result was inactive.

As for `c1ccc(CCCc2ccccn2)cc1`, the call was inactive.

As to `CC[N+](C)(CC)CC`, the result was inactive.

Regarding `CCCCCCC(C)(C)S`, the molecule was called inactive.
